In the library only some 16% were active in any assay of this set; here they are far more common.
TDP1 inh – TDP1 (human) enzyme inhibition. Q9NUW8. recombinant TDP1, AlphaScreen DNA substrate cleavage. Potency, µM (doses to about 130 µM), for inactives: top-dose activity change, negative = inhibition, usual class: inhibitors. 350,000 tested, 0.28% active. AID 485290; further: potency means the concentration at half of the fitted maximal effect; on the % scale 0 is the no-effect control and ±100 the full control effect; nearly all actives have a fitted effect of over 40% in size
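Recombinant E. coli-expressed Tdp1 (1 nM) preincubated with compound 15 min at RT, then 5'-biotin/3'-phosphotyrosine-FITC DNA substrate (15 nM) added for 5 min. AlphaScreen beads (10 ug/ml) added, 10 min RT; tyrosine-FITC cleavage read as signal loss.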
TDP1 cell noCPT – qHTS for Inhibitors of human tyrosyl-DNA phosphodiesterase 1 (TDP1): qHTS in cells in absence of CPT; 420,000 tested, 15% active; Potency, µM (series often up to 46.2 µM), without a hit: at the highest dose activity change, negative = growth inhibition, usual class: inhibitors; DT40 Tdp1-/- hTDP1 cells, no CPT, ATP luminescence, 48 h; AID 686978, 2013; further: potency means the concentration at half of the fitted maximal effect; on the % scale 0 is the no-effect control and ±100 the full control effect; nearly all actives have a fitted effect of over 55% in size
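Growth of hTDP1-complemented DT40 Tdp1-knockout cells is measured by ATP luminescence after at least 48 hr compound exposure at 37 °C, with DMSO substituting for the 20 nM CPT used in the parallel screen.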
miR-21 reporter – raises the signal of a miR-21 reporter | HeLa miR-21 FLuc reporter, luciferase, 48 h | Potency, µM (highest dose often 38.3 µM), inactives show at the highest dose reporter change, positive = more light | 340,000 tested, under 10 active | AID 2288; active = well fitted rising curve with a large enough effect; inconclusive = small, poorly fitted or top-dose-only effect; inactive = no such curve, though single readings can be large or run the other way;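 note: % of control where 0% means no effect; miR-21 action dims this reporter so a rising signal means less miR-21 action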
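HeLa miR-21-FLuc reporter line, endogenous miR-21; 2000 cells/well in DMEM/10% FBS; compound titration up to ~40uM final, 48 h, 37 degree Celsius; luciferase detection reagent, 15 min lysis, CCD luminescence.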
TDP1 cell CPT – DT40-hTDP1 cell growth loss with CPT; chicken DT40 Tdp1-/-;hTDP1 cells + 20 nM CPT, ATP luminescence, 48 h; Potency, µM (doses to about 46.2 µM), for inactives: at the top dose activity change, negative = growth inhibition, actives largely listed as inhibitors; 420,000 tested, 12% active; further: potency means the concentration at half of the fitted maximal effect; on the % scale 0 is the no-effect control and ±100 the full control effect; nearly all actives have a fitted effect of over 55% in size
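Chicken DT40 Tdp1-/- cells stably complemented with human TDP1 were seeded at 400 cells/well in medium containing 20 nM camptothecin, exposed to pin-transferred compounds, and grown at 37 °C for at least 48 hr. Viability was read as ATP luminescence.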
uPA surface inh – blocks generation of uPA at the cell surface. cell surface uPA generation assay, qHTS. Potency, µM (top dose mostly 38.3 µM), inactives show at the highest dose activity change, negative = inhibition, hits mostly inhibitors. 330,000 tested, 0.31% active; active means well fitted inhibition curve with a large enough effect; inconclusive means small, poorly fitted or top-dose-only effect; inactive means no such curve, though single readings can be large or run the other way; tested in mouse RAW 264.7 cells; further: potency means the concentration at half of the fitted maximal effect; on the % scale 0 is the no-effect control and ±100 the full control effect; nearly all actives have a fitted effect of over 55% in size
Active calls of the source: *; ? = inconclusive; . = no result. Unless noted, the call rests on the fitted dose curve; in most records, active means well fitted curve in the direction sought with a large enough effect; inconclusive means small, poorly fitted or top-dose-only effect, or another doubt; inactive means no such curve, though single readings can be large; an effect the other way counts as inactive or inconclusive.

Assay codes: A = TDP1 inh; B = TDP1 cell noCPT; C = miR-21 reporter; D = TDP1 cell CPT; E = uPA surface inh
CCc1cccc(-n2c(=O)c3cccnc3n2CC(=O)Nc2c(C)cc(C)cc2C)c1
  A = -3% | B = 23µM* | C = 0% | D = ? | E = .

COCCNC(=O)NC(=O)COC(=O)c1cccn1C
  A = 8% | B = 3% | C = -3% | D = 11% | E = 5%

CCc1nn(CC(=O)NCc2ccco2)c(=O)c2cc3c(OC)cccc3n12
  A = 0% | B = -3% | C = 0% | D = -18% | E = .

CC1=NN(c2ccccc2)C(=O)C1c1ccccc1 (stereo not drawn)
  A = 0% | B = -12% | C = -16% | D = 2% | E = -6%

CC1=NN(c2ccccc2)C(=O)C1C(=S)SC1CC(=O)NC1=O (stereo not drawn)
  A = . | B = 29µM* | C = . | D = ? | E = .

COc1cccc(C(=O)CSc2nc3ccccc3n2CC(=O)N(C(C)C)C(C)C)c1
  A = -2% | B = 6% | C = -9% | D = 10% | E = 2%

COc1cccc(-n2c(SCC(=O)Nc3cccc(C)c3)nc3c([nH]c4ccccc43)c2=O)c1
  A = -1% | B = ? | C = 11% | D = ? | E = .

O=C(CSc1nc2c([nH]c3ccccc32)c(=O)n1-c1ccccc1)Nc1cccc(C(F)(F)F)c1
  A = 4% | B = 23µM* | C = 0% | D = 15µM* | E = .

Cc1ccc(-n2c(SCC(=O)NCc3ccc(F)cc3)nc3c([nH]c4ccccc43)c2=O)cc1
  A = -1% | B = 23µM* | C = 0% | D = 18µM* | E = .

O=C(CSc1nc2c([nH]c3ccccc32)c(=O)n1-c1ccccc1F)Nc1cccc(Cl)c1
  A = 10% | B = 21µM* | C = ? | D = ? | E = .

Cc1cc(C)cc(NC(=O)CSc2nc3c([nH]c4ccccc43)c(=O)n2-c2ccc(F)cc2)c1
  A = 0% | B = 21µM* | C = -9% | D = 8.2µM* | E = .

Cc1cc(C)cc(-n2c(SCC(=O)Nc3cccc(F)c3)nc3c([nH]c4ccccc43)c2=O)c1
  A = 5% | B = ? | C = -4% | D = -28% | E = .

COc1cccc(-c2nnc(SCN3C(=O)c4ccccc4C3=O)n2C)c1
  A = 8% | B = -6% | C = -11% | D = ? | E = -1%

CCN(CC)C(=O)C12C(=O)Oc3ccccc3C1C2(C)C(=O)c1ccc(F)cc1 (stereo not drawn)
  A = 7% | B = -11% | C = -1% | D = 4% | E = 1%

CNc1nc(Cl)c(SC)c(N2CCOCC2)n1
  A = 1% | B = ? | C = -6% | D = -11% | E = -11%

Cc1ccc(-n2c(SCC(N)=O)nc3c([nH]c4ccccc43)c2=O)cc1
  A = 7% | B = 26µM* | C = -12% | D = 15µM* | E = -3%

O=C(OCC(=O)c1ccc(Cl)cc1Cl)c1ccccn1
  A = 0% | B = ? | C = . | D = -30% | E = ?

CC1CCc2c(sc3ncn(CC(=O)N=Nc4c(O)[nH]c5ccccc45)c(=O)c23)C1 (stereo not drawn)
  A = 6% | B = -28% | C = 0% | D = ? | E = -4%

CCc1nc(N=Nc2c(O)[nH]c3ccccc23)c2c3c(sc2n1)CCC3
  A = 3% | B = 16µM* | C = -8% | D = 13µM* | E = 5%

O=c1ccc2cc(S(=O)(=O)NCc3ccc(Br)cc3)ccc2[nH]1
  A = -7% | B = -11% | C = -8% | D = ? | E = .

Individual results from the entries so far.
CNc1nc(Cl)c(SC)c(N2CCOCC2)n1 in miR-21 reporter: -6%
CCN(CC)C(=O)C12C(=O)Oc3ccccc3C1C2(C)C(=O)c1ccc(F)cc1 (stereo not drawn) in miR-21 reporter: -1%

Carrying on:
Assay codes: A = TDP1 inh; B = TDP1 cell noCPT; C = miR-21 reporter; D = TDP1 cell CPT; E = uPA surface inh
CCc1cc2c(COC(=O)c3cccc(S(C)(=O)=O)c3)cc(=O)oc2cc1O
  A = . | B = ? | C = 4% | D = ? | E = -10%

CCc1cc2c(COC(=O)c3c(C)noc3C)cc(=O)oc2cc1O
  A = -8% | B = 10µM* | C = -12% | D = ? | E = 1%

COc1ccc(C(C)=O)cc1COC(=O)c1c(C)noc1C
  A = 4% | B = 15µM* | C = 13% | D = ? | E = -10%

Cc1cc(Br)ccc1NC(=O)CCNS(=O)(=O)c1cccc2nonc12
  A = 9% | B = ? | C = 5% | D = -26% | E = .

CC(=O)/C(N=Nc1ccc(C(=O)O)cc1[N+](=O)[O-])=C(\C)O
  A = . | B = 11% | C = 1% | D = -1% | E = 0%

CC(=O)/C(N=Nc1cc2c(c([N+](=O)[O-])c1C)C(C)(C)CC2(C)C)=C(\C)O
  A = 8% | B = 18µM* | C = 2% | D = ? | E = 3%

CC(=O)/C(N=Nc1cc2c(cc1[N+](=O)[O-])OCCO2)=C(\C)O
  A = -3% | B = 26µM* | C = 1% | D = ? | E = 6%

O=C1NC(c2cccs2)Nc2sc3c(c21)CCCC3 (stereo not drawn)
  A = -14% | B = 3.3µM* | C = -39% | D = 4.1µM* | E = -2%

COc1cc(C2NC(=O)c3c(sc4c3CCN(C)C4)N2)cc(OC)c1OC (stereo not drawn)
  A = . | B = ? | C = 1% | D = ? | E = .

O=C1C=C(Nc2cccnc2)c2ccccc2C1=O
  A = . | B = 7.3µM* | C = . | D = 7.3µM* | E = -11%

CCOc1ccc(NC2=CC(=O)C(=O)c3ccccc32)cc1
  A = . | B = 3.3µM* | C = . | D = 2.3µM* | E = -12%

O=C1C=C(Nc2ccc(F)cc2)c2ccccc2C1=O
  A = -13% | B = 9.2µM* | C = . | D = 7.3µM* | E = 1%

CCOc1ccc(NC2=CC(=O)CCC2)cc1
  A = . | B = -2% | C = -11% | D = 22% | E = -1%

COc1cc(Cl)c(NC2=CC(=O)C(=O)c3ccccc32)c(OC)c1
  A = 6% | B = ? | C = . | D = 12µM* | E = 3.2µM*

CC(C(=O)Nc1cccnc1)N1C(=O)c2ccccc2C1=O (stereo not drawn)
  A = 4% | B = -8% | C = -3% | D = -1% | E = 3%

CCOc1cc(C2CC(=O)Nc3c2c(=O)nc(SCc2cccc(Cl)c2)n3C)ccc1O (stereo not drawn)
  A = 2% | B = 8.2µM* | C = 4% | D = ? | E = .

Cc1cccc(CSc2nc(=O)c3c(n2C)NC(=O)CC3c2cc(F)cc(F)c2)c1 (stereo not drawn)
  A = 4% | B = 6.5µM* | C = -2% | D = 9.2µM* | E = .

CCSc1nc(=O)c2c(n1C)NC(=O)CC2c1ccc(O)cc1OC (stereo not drawn)
  A = 2% | B = 0% | C = -2% | D = 7% | E = .

N#CCCNc1c(Cl)cc(Cl)cc1C(=O)O
  A = 5% | B = -4% | C = -11% | D = -4% | E = 7%

CC1=CC(=O)C(C(C)C)=C/C1=N/OS(=O)(=O)c1ccccc1
  A = . | B = 0.58µM* | C = ? | D = 0.58µM* | E = 4µM*

Among those listed so far, these have bromine.
Assay codes: A = TDP1 inh; B = TDP1 cell noCPT; C = miR-21 reporter; D = TDP1 cell CPT; E = uPA surface inh
O=c1ccc2cc(S(=O)(=O)NCc3ccc(Br)cc3)ccc2[nH]1
  A = -7% | B = -11% | C = -8% | D = ? | E = .

Cc1cc(Br)ccc1NC(=O)CCNS(=O)(=O)c1cccc2nonc12
  A = 9% | B = ? | C = 5% | D = -26% | E = .

Next section.
Assay codes: A = TDP1 inh; B = TDP1 cell noCPT; C = miR-21 reporter; D = TDP1 cell CPT; E = uPA surface inh
CC1=CC(=O)C=C(C)C1=NOS(=O)(=O)c1ccccc1
  A = 9% | B = 2.1µM* | C = ? | D = 1.3µM* | E = -11%

Cc1ccc2c(c1)/C(=N/OS(=O)(=O)c1ccccc1)CCS2
  A = . | B = -21% | C = . | D = ? | E = -1%

COCCCNC(=O)[C@@H](Cc1ccccc1)NC(=O)CC[C@H]1O[C@@H](n2ccc(=O)[nH]c2=O)[C@H](O)[C@@H]1O
  A = . | B = 0% | C = . | D = 18% | E = .

CC1CC(C)CN(C(=O)/C(=C\c2ccccc2)c2ccccc2)C1 (stereo not drawn)
  A = -8% | B = 13µM* | C = -6% | D = 16µM* | E = 9%

CN1CCN(C(=O)/C(=C/c2ccccc2)c2ccccc2)CC1
  A = 0% | B = -15% | C = -4% | D = -20% | E = .

O=[N+]([O-])c1ccc2c(c1)N([O-])C1(CCCCC1)[N+]2=O
  A = 6% | B = ? | C = -4% | D = 26µM* | E = -3%

CCCCC1CN2CCc3c([nH]c4ccccc34)C2(C)C1 (stereo not drawn)
  A = . | B = 18µM* | C = 2% | D = ? | E = 1%

High-throughput results: PubChem, National Center for Advancing Translational Sciences (NCATS)
